## scFv variants of Ab-14 (light chain) against a SARS-CoV-2 spike peptide

Binding partner: SARS-CoV-2 spike HR2 peptide, sequence PDVDLGDISGINAS.

Parent scFv Ab-14: VH joined to VL by a 15-residue (Gly4Ser)3 linker. Changes lie in the light chain CDRs alone.
VH: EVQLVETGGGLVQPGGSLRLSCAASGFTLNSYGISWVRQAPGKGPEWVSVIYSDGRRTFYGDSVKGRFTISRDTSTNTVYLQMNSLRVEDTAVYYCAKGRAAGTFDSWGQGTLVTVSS
VL: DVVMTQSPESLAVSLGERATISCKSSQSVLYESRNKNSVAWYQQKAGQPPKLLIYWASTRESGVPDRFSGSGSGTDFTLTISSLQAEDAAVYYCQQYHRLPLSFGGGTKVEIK

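The variants were designed computationally from a first round of random CDR variants and then made and measured. Their group label is 14L_Ctrl (Ctrl: baseline library sampled from a position-specific scoring matrix, with some repeated check sequences). In AlphaSeq, yeast of one mating type display the scFv and yeast of the other type display the target. Binding brings cells together so that they mate, and sequencing counts the barcode pairs among the diploids. A regression on co-assayed BCL2-family reference pairs converts the normalised counts of each replicate to an apparent Kd. There are six technical replicates.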

The parent's light chain CDRs are KSSQSVLYESRNKNSVA, WASTRES, QQYHRLPLS; each variant's own CDRs replace them letter for letter. Scale: log10 of Kd in nM, estimated from mating counts; low values are strong binders. The mean shown is taken over the replicates in which the pair was detected. "nd" means that the variant was in the library but no mating with the target was seen in that replicate; the authors take this as a sign of poor binding, and no number exists.

The variant KSSQSVLYESRNKNSVA, WASTREK, QQYHRLVLS gave nd, 3.19, nd, 2.31, 2.23, nd (mean 2.58; controls 0 of 18).
The variant KSSQSVLTNSRNKNSVA, DGSTRES, QQYHRLPLS gave 0.17, -0.10, 0.08, -0.16, -0.11, 0.14 (mean 0.00; controls 1 of 18).
The variant KSSKSVLYESINKNSVA, WASTREN, QQYHRLPLS gave 1.57, 1.87, 1.76, 2.00, nd, 1.52 (mean 1.74; controls 0 of 18).
The variant RSSQSVLYESRNKNSVA, RASTRAS, QQYHRLPLS gave nd, nd, 2.74, 2.42, nd, nd (mean 2.58; controls 2 of 18).
The variant KSSQSWLYESRNKNSVA, WASTRES, QQYLRLPLS gave nd, nd, nd, nd, 1.88, nd (controls 0 of 18).
The variant KSSPSVLYESRNENSVA, YGSTRES, QQYHRLPLS gave 0.54, 0.29, 0.39, 0.43, 0.42, 0.56 (mean 0.44; controls 2 of 18).
The variant KSPQSVLYESPNKWSVA, WASTRES, QNYYRLPLS gave nd, nd, nd, nd, nd, nd (controls 0 of 18).
The variant KSSQSVLYESRNKNSVA, EASTRES, VQYHRLPLS gave 0.90, 0.41, 0.98, 0.74, 2.70, 0.60 (mean 1.06; controls 0 of 18).
The variant KSDQSVNYESENQNSVA, WASTRES, QQYHRLPLE gave 2.15, 1.20, 2.60, 2.51, 1.41, 2.19 (mean 2.01; controls 1 of 18).
The variant KSSQSPLYESRNKNSVA, GASTRES, QQYHRLPLS gave 0.50, 0.46, 0.22, 0.12, 0.23, 0.47 (mean 0.33; controls 1 of 18).
The variant KSSQSPLYESRNKNSVA, WASTRED, QQYHRLPLS gave 1.57, 1.49, 1.94, 2.21, 1.41, 2.16 (mean 1.80; controls 1 of 18).
The variant KSSQSVLYQSRFKNSVA, WASTREQ, QQYHRLPLS gave nd, 1.29, nd, nd, nd, nd (controls 0 of 18).
The variant KSSPSVLYESRNFNSVA, WASTRES, QQYHRLPLS gave 2.31, 1.91, 1.51, 1.54, 2.07, 1.66 (mean 1.83; controls 0 of 18).
The variant KSSQSVGVESMNKNSVA, AASTRES, QQYHRLPLS gave 0.08, -0.07, -0.03, -0.05, -0.05, 0.19 (mean 0.01; controls 1 of 18).
The variant KQSQSVLYTERNKNSVA, EASTRES, QQYHRLPLS gave 0.11, -0.23, -0.21, -0.08, -0.15, -0.07 (mean -0.10; controls 0 of 18).
The variant KSSQSVLEESRNKNSVA, WASTRES, QQYHRLPLS gave 2.28, 1.36, 1.56, 1.23, 1.26, 1.54 (mean 1.54; controls 1 of 18).
The variant KSSQSNEYENRNKNSVA, EASTRES, QQYWRLPLS gave 0.09, -0.05, -0.26, -0.08, -0.14, 0.15 (mean -0.05; controls 0 of 18).
The variant KSSQAVLYESRNKNSVA, WASTGES, QQYHRLPLS gave nd, nd, nd, nd, nd, nd (controls 0 of 18).
The variant KSSQSVEYESVNKNSVA, WASQRES, QQYHRLPLS gave 0.72, 1.23, 1.12, 0.86, 1.41, 1.07 (mean 1.07; controls 2 of 18).
The variant KSSQSALYESRNKNSVA, WAMTRES, QQEHRLPLS gave nd, nd, nd, nd, nd, nd (controls 0 of 18).
The variant KFSQSVLCESRNKNSVA, TASQRES, FQYHRLPLS gave nd, nd, nd, nd, nd, nd (controls 0 of 18).
The variant KFSQSVLYESRNKNSVA, WASARES, QQYHYLPLS gave nd, 1.38, 1.11, 1.28, 0.97, 1.26 (mean 1.20; controls 1 of 18).
The variant KSSQSVLDESSNKNSVA, WASTRES, QQYHRLPLS gave 0.79, 0.79, 0.43, -0.02, 0.27, 0.65 (mean 0.48; controls 2 of 18).
The variant KSEQSVLYESSNKNSVA, WASTRES, QQYHRLPLS gave 1.41, 2.48, 1.71, 1.15, 1.66, 1.96 (mean 1.73; controls 0 of 18).
The variant KSSQSVLYESRNANSVA, WASTREN, QQYLRLPLS gave 2.25, nd, 1.81, 1.65, 1.76, 3.09 (mean 2.11; controls 0 of 18).
The variant KFSQSVPYDSRNKNSVA, WASTRES, QQYHRLPLS gave 0.92, 1.15, 1.15, 0.99, 1.24, 0.79 (mean 1.04; controls 0 of 18).
The variant KSSQSVLYEERNKNNVA, WASTRES, QQYHRLPLS gave 1.06, 0.39, 0.88, 0.83, 0.70, 1.14 (mean 0.83; controls 0 of 18).
The variant KISQSVLYESRNKNSVA, WASTRES, QQYHRLPYS gave nd, 2.15, nd, nd, nd, nd (controls 1 of 18).
The variant DSSQSVLYESRNKHSVA, AASARES, QQYHRLPLS gave 1.29, 1.38, 0.95, 1.01, 1.75, 1.08 (mean 1.24; controls 0 of 18).
The variant KSSQSVLYESRNKNSVA, SLSTRES, QQYHRLPLS gave 1.55, 1.27, 0.94, 1.45, 1.11, 1.08 (mean 1.24; controls 2 of 18).

The first 4 entries again:

{"CDR-L1": "KSSQSVLYESRNKNSVA", "CDR-L2": "WASTREK", "CDR-L3": "QQYHRLVLS", "log10 Kd, replicates": "nd, 3.19, nd, 2.31, 2.23, nd", "log10 Kd (nM), mean": "2.58", "empty controls": "0 of 18"}
{"CDR-L1": "KSSQSVLTNSRNKNSVA", "CDR-L2": "DGSTRES", "CDR-L3": "QQYHRLPLS", "log10 Kd, replicates": "0.17, -0.10, 0.08, -0.16, -0.11, 0.14", "log10 Kd (nM), mean": "0.00", "empty controls": "1 of 18"}
{"CDR-L1": "KSSKSVLYESINKNSVA", "CDR-L2": "WASTREN", "CDR-L3": "QQYHRLPLS", "log10 Kd, replicates": "1.57, 1.87, 1.76, 2.00, nd, 1.52", "log10 Kd (nM), mean": "1.74", "empty controls": "0 of 18"}
{"CDR-L1": "RSSQSVLYESRNKNSVA", "CDR-L2": "RASTRAS", "CDR-L3": "QQYHRLPLS", "log10 Kd, replicates": "nd, nd, 2.74, 2.42, nd, nd", "log10 Kd (nM), mean": "2.58", "empty controls": "2 of 18"}

The range of this assay differs from that of the first round, and the authors advise against merging the two. Three control strains display no target. For all light chain designs, 4% of the pairings with them gave a signal, with a median of 2.64 and one signal in twenty below 1.59, so weak values seen in few replicates may be background. For each scFv, signals with the empty controls are counted beside the result. In the paper, a design with two or fewer of six values counts as a poor binder. The parent sequence was in this pool as ten entries: three were never detected, three once, and four in most replicates, with averages from 0.34 to 2.37.

Reference: Li et al. 2023, doi:10.1038/s41467-023-39022-2. File: FLAb, binding data.